IntAct's records for PubMed 23748380

B1: ATP-dependent DNA helicase Q5 (Homo sapiens), O94762-1 (parent)
chain: MSSHHTTFPFDPERRVRSTLKKVFGFDSFKTPLQESATMAVVKGNKDVFVCMPTGAGKSLCYQLPALLAKGITIVVSPLIALIQDQVDHLLTLKVRVSSLNSKLSAQERKELLADLEREKPQTKILYITPEMAASSSFQPTLNSLVSRHLLSYLVVDEAHCVSQWGHDFRPDYLRLGALRSRLGHAPCVALTATATPQVQEDVFAALHLKKPVAIFKTPCFRANLFYDVQFKELISDPYGNLKDFCLKALGQEADKGLSGCGIVYCRTREACEQLAIELSCRGVNAKAYHAGLKASERTLVQNDWMEEKVPVIVATISFGMGVDKANVRFVAHWNIAKSMAGYYQESGRAGRDGKPSWCRLYYSRNDRDQVSFLIRKEVAKLQEKRGNKASDKATIMAFDALVTFCEELGCRHAAIAKYFGDALPACAKGCDHCQNPTAVRRRLEALERSSSWSKTCIGPSQGNGFDPELYEGGRKGYGDFSRYDEGSGGSGDEGRDEAHKREWNLFYQKQMQLRKGKDPKIEEFVPPDENCPLKEASSRRIPRLTVKAREHCLRLLEEALSSNRQSTRTADEADLRAKAVELEHETFRNAKVANLYKASVLKKVADIHRASKDGQPYDMGGSAKSCSAQAEPPEPNEYDIPPASHVYSLKPKRVGAGFPKGSCPFQTATELMETTRIREQAPQPERGGEHEPPSRPCGLLDEDGSEPLPGPRGEVPGGSAHYGGPSPEKKAKSSSGGSSLAKGRASKKQQLLATAAHKDSQSIARFFCRRVESPALLASAPEAEGACPSCEGVQGPPMAPEKYTGEEDGAGGHSPAPPQTEECLRERPSTCPPRDQGTPEVQPTPAKDTWKGKRPRSQQENPESQPQKRPRPSAKPSVVAEVKGSVSASEQGTLNPTAQDPFQLSAPGVSLKEAANVVVKCLTPFYKEGKFASKELFKGFARHLSHLLTQKTSPGRSVKEEAQNLIRHFFHGRARCESEADWHGLCGPQR

Variants of: B1
Conditions: with rpb1_human POLR2A

| Variant | effect of a mutation on the interaction |
| --- | --- |
| W504A | disrupting interaction strength |
| W504A;F507A | disrupting interaction strength |
| W504A;F507A;Y508A | disrupting interaction strength |
| W504A;Y508A | disrupting interaction strength |
| F507A;Y508A | disrupting interaction strength |
| Y508A | disrupting interaction strength |
| R515E | disrupting interaction strength |
| K516E | decreasing interaction strength |
| H552A | decreasing interaction strength |
| L556E | disrupting interaction strength |
| L556E;L602E | disrupting interaction strength |
| K598E | disrupting interaction strength |
| L602E | disrupting interaction strength |
| K603E | disrupting interaction strength |
